Experimental data published in patent publication US11608342B2, “PDE9 inhibitors with imidazo triazinone backbone and imidazo pyrazinone backbone for treatment of peripheral diseases” (H. LUNDBECK A/S, priority 2015, dated 2023).

Conditions: mouse, 10 mg/kg subcutaneous

C[C@@H]1CN(Cc2ncccn2)C[C@H]1c1nc2c(cnn2C2CCOCC2)c(=O)[nH]1 (single isomer, unassigned) [reference compound]
Brain concentration after 30 minutes: 500 ng/mL
